Source: patent US5656600A, “α-ketoamide derivatives as inhibitors of thrombosis” (Corvas International, Inc., priority 1993, dated 1997)

How the values were obtained:
Rat Venous Stasis Model = test: Venous stasis in rats (thromboplastin plus stasis, inferior vena cava); details: for % Clot: mean ± S.E.M.
[1] = test system: pooled normal human plasma; test: Ex vivo coagulation assay (APTT); details: normal citrated human plasma; FIG. 3
α-thrombin [2] = target: T1, α-thrombin (Homo sapiens, UniProt P00734); test: Thrombin-induced clotting of purified fibrinogen; details: preincubation with α-thrombin up to 60 minutes before fibrinogen
[3] = test system: FeCl3 Model of Thrombosis in Rats; test: Rat model of FeCl3-induced platelet-dependent arterial thrombosis; details: for Incidence of Occlusion: occluded/total animals
α-thrombin [4] = target: T1, α-thrombin; test: Amidolytic thrombin assay (inhibition constant Ki); details: for kinetics / mechanism of thrombin inhibition: in words
washed human platelets = test: Thrombin-induced aggregation in washed human platelets
[5] = 0.1 mg/kg i.v. bolus + 10 μg/kg/min i.v. infusion
[6] = 0.1 mg/kg i.v. bolus + 20 μg/kg/min i.v. infusion
[7] = 0.1 mg/kg i.v. bolus + 40 μg/kg/min i.v. infusion

CCCC(CCC)C(=O)N[C@@H](CC(=O)O)C(=O)N1CCC[C@H]1C(=O)N[C@@H](CCCNC(=N)N)C(=O)C(=O)NCC(=O)NCC(=O)NCC(=O)NCC(=O)NCC(=O)N[C@@H](CC(N)=O)C(=O)NCC(=O)N[C@@H](CC(=O)O)C(=O)N[C@@H](Cc1ccccc1)C(=O)N[C@@H](CCC(=O)O)C(=O)N[C@@H](CCC(=O)O)C(=O)N[C@H](C(=O)N1CCC[C@H]1C(=O)N[C@@H](CCC(=O)O)C(=O)N[C@@H](Cc1ccc(O)cc1)C(=O)N[C@@H](CC(C)C)C(=O)O)[C@@H](C)CC
% Clot (Rat Venous Stasis Model; [5]): 22.03 ± 3.6%
% Clot (Rat Venous Stasis Model; [6]): 8.25 ± 5.1%
% Clot (Rat Venous Stasis Model; [7]): 0%
effect on venous thrombus formation induced by stasis and thromboplastin (Rat Venous Stasis Model; summary in words): very efficacious in dose-dependently preventing venous thrombus formation
prolongation of activated partial thromboplastin time (APTT) [1]: prolonged the APTT in a dose dependent manner
proteolytic inactivation by thrombin upon prolonged incubation (α-thrombin [2]): not proteolytically inactivated by thrombin
% Clot ([3]; 0.1 mg/kg i.v. bolus + 5 μg/kg/min i.v. infusion, mean ± S.E.M., segments with detectable thrombus): 66.14 ± 3.83%
Incidence of Occlusion ([3]; 0.1 mg/kg i.v. bolus + 5 μg/kg/min i.v. infusion): 5/6
% Clot ([3]; 0.1 mg/kg i.v. bolus + 10 μg/kg/min i.v. infusion, mean ± S.E.M., segments with detectable thrombus): 42.28 ± 12.6%
Incidence of Occlusion [3, 5]: 4/6
% Clot ([3]; 0.1 mg/kg i.v. bolus + 20 μg/kg/min i.v. infusion, mean ± S.E.M., segments with detectable thrombus): 46.13 ± 6.75%
Incidence of Occlusion [3, 6]: 3/6
% Clot [3, 7]: 0%
Incidence of Occlusion [3, 7]: 0/5
fold difference in Ki between compound 8 and 9 (α-thrombin [4]): 23,000 fold
Ki (α-thrombin [4]; chromogenic substrate Pefachrome t-PA, HBSA pH 7.5, slow-binding (kon/koff) or Dixon analysis): 0.0019 nM
fold more potent than Hirulog-1 (compound 25) (α-thrombin [4]; direct comparison under the same assay conditions): 230 fold
kinetics / mechanism of thrombin inhibition (α-thrombin [4]): slow binding or slow-tight binding kinetics
kinetics / mechanism of thrombin inhibition (α-thrombin [4]; listed as compound 8): predominantly one-step competitive, tight-binding mechanism
persistence of inhibition of aggregation over the 15 minute course of the assay (washed human platelets; 20nM (compound 8), same or higher concentrations (Hirulog-1), FIG. 4): stable with no recovery of aggregation
IC50 (washed human platelets; α-thrombin 2 nM, extent of aggregation over 1 minute after thrombin, mean ± standard deviation, three determinations): 25 nM
